The numbers were not newly measured in patent US20260347325A1, “DIPHENYLPYRAZOLE COMPOUNDS AND THEIR USE” (INSTITUT NATIONAL DE LA SANTÉ ET DE LA RECHERCHE MÉDICALE, priority 2022, published 2026), which cites them from elsewhere.

One data set relates to amyloid load. Particulars: in words; clinical trials; cited from earlier work.
In another data set the test system is Tau. Particulars: in words; clinical trials; cited from earlier work.

As for Aducanumab: Aducanumab immunotherapy, in the data set on amyloid load, the amyloid load result is “reduces the amyloid load”. Besides, in the data set with Tau, the “Tau PET imaging” value is “reduces the amyloid load and Tau PET imaging”.
